# Assay results: PubChem BioAssay AID2016 (NMMLSC, 2009)
# This is a selection; strong and weak results do not stand in their true shares. Active and inactive are the calls of the source.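 How the source made its calls: active means GFP response versus DMSO above a set limit, roughly screen mean plus 3 SD (cut at about 180% in these data); inconclusive means fewer than 70 cells counted for a yeast strain; inactive means the rest.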
# Experiment: TOR pathway GLN3 branch reporter MEP2-GFP changes – S. cerevisiae, multiplex flow cytometry, MLPCN library, primary screen (AID 2016);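 further: median GFP fluorescence of the barcode-gated MEP2-GFP cells per well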
# Settings: S. cerevisiae MEP2-GFP strain, 3 h, at 10 µM, stronger effect = higher value, 100% = DMSO control level
row,Compound,GFP response vs DMSO
1,CN(C)c1cccc(C(=O)NCC2(N3CCCCC3)CCCCC2)c1,inactive: 106%
2,COc1ccc(CN(CCCl)CCCl)cc1Cl,inactive: 95.5%
3,CC(C)c1ccc(NC2CCN(C(=O)OC(C)(C)C)CC2)cc1,inactive: 93.1%
4,O=C(NCC1(N2CCOCC2)CCCCC1)c1cc(F)c(F)cc1Cl,inactive: 99.1%
5,COc1cc(OC)c(C(=O)NCC2(N(C)C)CCCCC2)cc1OC,inactive: 95%
6,CN1CCC(Nc2cccc(F)c2)CC1,inactive: 110%
7,O=C(NCC1(N2CCCCC2)CCCCC1)c1cncc(Br)c1,inactive: 105%
8,CCCOc1ccc(C(=O)NCC2(N(C)C)CCCCC2)cc1OC,inactive: 89.4%
9,O=C(NCC1(N2CCCCC2)CCCCC1)c1ccc(OC(F)F)cc1,inactive: 103%
10,O=C(NCC1(N2CCCCC2)CCCCC1)c1cccc([N+](=O)[O-])c1,inactive: 107%
11,N#CC1(Nc2ccccc2)CCN(CCc2ccccc2)CC1,inactive: 116%
12,CCN1CCC(Nc2ccc(Cl)cc2)CC1,inactive: 101%
13,O=C(NCC1(N2CCCCC2)CCCCC1)c1cccc(C(F)(F)F)c1,inactive: 104%
14,COc1ccc(NC2CCN(C(=O)OC(C)(C)C)CC2)cc1,inactive: 96%
15,CN1CCN(CCOC(=O)C(O)(c2ccccc2)c2ccccc2)CC1,inactive: 83.2%
16,O=C(NCC1(N2CCOCC2)CCCCC1)c1cc(=O)[nH]c2ccccc12,inactive: 94.2%
17,COc1cc(C(=O)NCC2(N3CCCCC3)CCCCC2)ccc1OC(F)F,inactive: 103%
18,CCOc1ccc(C)cc1CN(CCCl)CCCl,inactive: 94.1%
19,CCOC(=O)N1CCC(Nc2ccc(F)cc2)CC1,inactive: 105%
20,COc1ccc(NC2CCN(CCc3ccccc3)CC2)c(OC)c1,inactive: 109%
21,O=C(NCC1(N2CCCCC2)CCCCC1)c1ccc(F)cc1,inactive: 102%
22,Cc1ccc(OCC(C)C)c(CN(CCCl)CCCl)c1,inactive: 93.7%

row,Compound,GFP response vs DMSO
1,CCOC(=O)N1CCC(Nc2cccc(C)c2)CC1,inactive: 104%
2,COc1cc(C(=O)NCC2(N(C)C)CCCCC2)ccc1OC(F)F,inactive: 101%
3,O=C(NCC1(N2CCCCC2)CCCCC1)c1cccs1,inactive: 104%
4,O=C(NCC1(N2CCCCC2)CCCCC1)c1ccc(=O)[nH]c1,inactive: 157%
5,COc1ccc(C(=O)NCC2(N3CCCCC3)CCCCC2)c(OC)c1OC,inactive: 90.6%
6,CC(C)(C)OC(=O)N1CCC(N(C(=O)c2ccccc2)c2ccc(F)cc2)CC1,inactive: 167%
7,COc1ccc(C(=O)NCC2(N3CCCCC3)CCCCC2)cc1,inactive: 108%
8,CSc1ccccc1C(=O)NCC1(N2CCCCC2)CCCCC1,inactive: 110%
9,O=C(NCC1(N2CCOCC2)CCCCC1)c1cc2ccccc2o1,inactive: 97%
10,Cc1cc(C)cc(N(C(=O)c2ccccc2)C2CCN(C(=O)OC(C)(C)C)CC2)c1,inactive: 98.5%
11,O=C(NCC1(N2CCCCC2)CCCCC1)c1ccc(Cl)nc1,inactive: 94.8%
12,CCOC(=O)N1CCC(Nc2ccc(OC)cc2)CC1,inactive: 103%
13,COc1ccc(Cl)cc1C(=O)NCC1(N2CCOCC2)CCCCC1,inactive: 102%
14,O=C(NCC1(N2CCCCC2)CCCCC1)c1ccc(Cl)s1,inactive: 94.1%
15,N#CC1(Nc2ccccc2)CCN(Cc2ccccc2)CC1,inactive: 104%
16,O=C(OC1CN2CCC1CC2)C1c2ccccc2Oc2ccccc21 (stereo unspecified),inactive: 104%
17,CN1CCC(Nc2ccc(F)c(Cl)c2)CC1,inactive: 105%
18,CCOc1ncccc1C(=O)NCC1(N2CCOCC2)CCCCC1,inactive: 108%
19,CCCOc1ccc(C(=O)NCC2(N(C)C)CCCCC2)cc1,inactive: 105%
20,O=C(O)C1(Nc2ccccc2)CCN(Cc2ccccc2)CC1,inactive: 104%
21,CC(C)(C)OC(=O)N1CCC(Nc2ccccc2)CC1,inactive: 91.3%
22,CCC(CO)(C(=O)OC1CN2CCC1CC2)c1ccccc1 (stereo unspecified),inactive: 95.7%

row,Compound,GFP response vs DMSO
1,COc1cccc(C(=O)N(c2cc(C)cc(C)c2)C2CCN(C(=O)OC(C)(C)C)CC2)c1,inactive: 104%
2,COc1cc(OC)cc(C(=O)NCC2(N3CCOCC3)CCCCC2)c1,inactive: 94.8%
3,CCCOc1ccc(C)cc1CN(CCCl)CCCl,inactive: 97.6%
4,CN1CCC(Nc2ccc(Cl)cc2)CC1,inactive: 102%
5,COc1cc(OC)cc(C(=O)NCC2(N3CCCCC3)CCCCC2)c1,inactive: 105%
6,Fc1ccccc1NC1CCN(Cc2ccccc2)CC1,inactive: 102%
7,Cc1ccc(C(=O)NCC2(N3CCCCC3)CCCCC2)o1,inactive: 128%
8,CCN1CCC(Nc2cccc(F)c2)CC1,inactive: 100%
9,CN(C)c1ccc(C(=O)NCC2(N3CCCCC3)CCCCC2)cc1,inactive: 97.1%
10,O=C(NCC1(N2CCCCC2)CCCCC1)c1ccco1,inactive: 98%
11,CC(C)(C)OC(=O)N1CCC(N(C(=O)c2ccccc2)c2ccc(Cl)cc2)CC1,inactive: 105%
12,N#Cc1ccc(C(=O)NCC2(N3CCCCC3)CCCCC2)cc1,inactive: 110%
13,CCCN1CCC(Nc2cc(OC)cc(OC)c2)CC1,inactive: 110%
14,c1ccc(CN2CCC(Nc3ccccc3)CC2)cc1,inactive: 100%
15,CN(C)C1(CNC(=O)c2cccc(C#N)c2)CCCCC1,inactive: 104%
16,O=C(NCC1(N2CCOCC2)CCCCC1)c1cc(Br)ccc1Cl,inactive: 98%
17,COc1cc(C(=O)NCC2(N3CCOCC3)CCCCC2)cc(OC)c1C,inactive: 104%
18,COc1ccc(C(=O)NCC2(N3CCOCC3)CCCCC2)cc1OC,inactive: 90.9%
19,N/C(=N\O)c1c(N)no[n+]1[O-],inactive: 99%
20,CCOC(=O)N1CCC(Nc2ccc(C)cc2)CC1,inactive: 83.6%
21,CCc1cc(C(=O)NCC2(N3CCCCC3)CCCCC2)sc1C,inactive: 93.1%
22,O=C(OC1CN2CCC1CC2)C1c2ccccc2C=Cc2ccccc21 (stereo unspecified),inactive: 101%
